Consider one substance from US11819483B2, “Combination therapy to treat urea cycle disorders” (Baylor College of Medicine, priority 2017, dated 2023).

The Cmax is the highest concentration seen after dosing.

Where two headings read alike, the source gives them in different places. Marks after values point to notes of the source that are not given here.

On to sodium phenylbutyrate [NaPB], for which the “PB AUC0-8” value (plasma phenylbutyrate, 0 to 8 h, day 4) is 1802.6 µmol/L. For the same substance, the “PB Tmax” value reads like this: (plasma phenylbutyrate, dose on day 4 after 3-day treatment) 1.5^b h; (plasma phenylbutyrate, dose on day 4 after 3-day treatment, listed as phenylbutyrate) ~1.5 h. The “Phenylbutyrate and PAA Cmax and AUC0-8, NaPB arm relative to MIX arm” value (plasma, day 4) is 2-3 times. Moreover, the Cmax (read-out: PB Cmax, plasma phenylbutyrate, dose on day 4 after 3-day treatment, healthy adults) was determined as 727 µM.
